# How the values were obtained:
# Sequences of proteins named here, by UniProt entry; tags and fusion partners are left off. Residues count along the entry.
# UniProt Q60492, whole entry: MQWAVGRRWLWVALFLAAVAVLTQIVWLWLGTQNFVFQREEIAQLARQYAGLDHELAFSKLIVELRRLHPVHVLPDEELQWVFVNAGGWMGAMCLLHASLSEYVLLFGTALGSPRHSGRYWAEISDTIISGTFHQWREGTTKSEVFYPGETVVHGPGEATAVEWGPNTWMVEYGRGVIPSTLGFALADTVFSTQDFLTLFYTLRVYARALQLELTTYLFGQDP
# UniProt H0VE83, 1-446: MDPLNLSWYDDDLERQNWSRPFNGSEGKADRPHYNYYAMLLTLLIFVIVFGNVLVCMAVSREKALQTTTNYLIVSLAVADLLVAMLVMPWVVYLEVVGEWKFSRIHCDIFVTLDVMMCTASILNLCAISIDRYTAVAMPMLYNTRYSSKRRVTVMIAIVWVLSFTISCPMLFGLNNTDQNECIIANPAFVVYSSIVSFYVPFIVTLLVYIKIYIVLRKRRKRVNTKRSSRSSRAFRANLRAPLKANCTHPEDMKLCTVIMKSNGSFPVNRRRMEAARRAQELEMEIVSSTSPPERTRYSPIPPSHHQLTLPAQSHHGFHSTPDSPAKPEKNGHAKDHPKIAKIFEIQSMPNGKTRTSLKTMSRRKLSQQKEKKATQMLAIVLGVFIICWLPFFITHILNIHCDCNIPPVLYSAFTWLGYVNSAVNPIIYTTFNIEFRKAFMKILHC
# [1] = molecular target: Sigma receptor (Cavia porcellus, UniProt Q60492); test: Sigma Receptor Binding Assay; set-up: species or system guinea pig (male Hartley); details: read-out: Receptor Binding Affinity Sigma (Ki class); 1 nM (+)-[3H]SKF 10,047, guinea pig brain membranes, pH 7.4, 45 min room temperature; tested form: fumarate
# [2] = molecular target: Dopamine (D-2) receptor (Cavia porcellus, UniProt H0VE83); test: Dopamine Receptor Binding; type: striatum membranes; details: read-out: Receptor Binding Affinity Dopamine (D-2) (Ki class); 0.15 nM [3H]spiperone, guinea pig striatum, pH 7.7, 15 min 37° C.; tested form: fumarate
structure (smiles),measurement,setting,value
O=C1C2C3CCC(CC3)C2C(=O)N1CC1CCN(CCc2ccccc2)CC1 (centres unmarked),Ki,[1],1 to 30 nM
same,Ki,[2],101 to 500 nM

# Reference: patent US5480892A, “(N-phthalimidoalkyl)piperidines” (The Du Pont Merck Pharmaceutical Company, priority 1994, dated 1996)
